Experimental data taken from publication PMC11863921 (BMC Biology, 2025).

Biological target: T1, AsolRXFP/LGR3 (Acanthaster planci, UniProt A0A8B7XXQ8)
T1 sequence (A0A8B7XXQ8 1-847): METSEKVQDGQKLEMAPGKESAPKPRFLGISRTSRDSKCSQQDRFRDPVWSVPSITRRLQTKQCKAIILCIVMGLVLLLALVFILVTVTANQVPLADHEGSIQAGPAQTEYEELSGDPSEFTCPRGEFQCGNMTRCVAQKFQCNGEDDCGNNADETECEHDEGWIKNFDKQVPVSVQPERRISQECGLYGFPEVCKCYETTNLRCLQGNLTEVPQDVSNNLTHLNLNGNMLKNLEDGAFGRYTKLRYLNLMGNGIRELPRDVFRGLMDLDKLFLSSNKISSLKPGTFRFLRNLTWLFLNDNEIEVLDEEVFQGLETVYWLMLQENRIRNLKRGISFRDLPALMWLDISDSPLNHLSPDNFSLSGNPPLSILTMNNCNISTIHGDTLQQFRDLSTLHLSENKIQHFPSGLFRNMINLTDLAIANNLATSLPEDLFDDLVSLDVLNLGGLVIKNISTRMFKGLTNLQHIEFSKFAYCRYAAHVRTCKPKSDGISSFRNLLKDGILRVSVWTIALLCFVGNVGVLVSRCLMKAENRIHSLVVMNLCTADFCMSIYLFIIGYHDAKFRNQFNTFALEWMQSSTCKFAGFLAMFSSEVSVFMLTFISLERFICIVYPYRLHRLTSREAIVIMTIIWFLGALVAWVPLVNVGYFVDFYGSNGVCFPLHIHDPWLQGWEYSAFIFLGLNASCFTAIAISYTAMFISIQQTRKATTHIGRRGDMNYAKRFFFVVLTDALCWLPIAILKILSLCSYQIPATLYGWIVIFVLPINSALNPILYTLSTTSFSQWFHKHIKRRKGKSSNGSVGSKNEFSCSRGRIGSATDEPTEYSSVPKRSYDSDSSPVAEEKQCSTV
Experiment: CRE reporter gene assay in CHO cells stably expressing AsolRXFP/LGR3
Type: cell-based, A. cf. solaris
Procedure: Human embryonic kidney (HEK) 293T cells were grown in complete Dulbecco’s modified Eagle medium (DMEM; Gibco) and Chinese hamster ovary (CHO) cells in complete DMEM/F12 (Gibco). Media was supplemented with 10% fetal bovine serum, 1% penicillin/streptomycin, and 1% L‐glutamine (complete media; All from Gibco). HEK-293T cells were transfected with LipofectAMINE 2000 (Invitrogen) and CHO cells with CHO TransIT and CHO-Mojo (Mirus), both according to the manufacturer’s instructions.
CHO and HEK293T cells stably expressing AsolRXFP/LGR3 were generated by lentiviral transduction. […] Transduced cells were sorted from non-transduced cells using the GFP reporter by fluorescence-activated cell sorting (FACS), using a Becton Dickinson FACSAria III as previously described. […]
The ability of the A. cf. solaris receptors to respond to A. cf. solaris RGP1 and RGP2 peptides was tested using a pCRE β-galactosidase reporter gene assay in CHO cells stably expressing AsolRXFP/LGR3 or HEK-293T cells transfected with AsolRXFP/LGR4 (long) or AsolRXFP/LGR4 (short), as described in detail previously. […] Plates were thawed for the development of β-galactosidase activity, as described previously, with absorbance being read at 570 nm on an Epoch 2 microplate reader. […]

Row | Substance | potency (pEC50) (Fig. 5 legend, pooled data of at least three assays in triplicate, mean, S.E.M.) | potency (pEC50) (CHO-AsolRXFP/LGR3 cells, pCRE β-galactosidase reporter, 6 h at 37 °C, three-parameter fit, n = 6)
1 | Acanthaster cf. solaris Relaxin-like gonad-stimulating peptide 1 [AsolRGP1] | 7.80 ± 0.18 | 
2 | Acanthaster cf. solaris Relaxin-like gonad-stimulating peptide 2 [AsolRGP2] |  | Dose–response curves could not be fitted
